The results in this text go back to PubChem BioAssay AID2380 (Sanford-Burnham Center for Chemical Genomics, 2010).

The entries are a selection whose mix differs from that of the whole data set. The source made the active and inactive calls.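 How the source made its calls: active means compounds whose signal lies at least 3.5 SD above the mean of all wells on their plate; inactive means the rest.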

This test is described as follows: small molecules increasing insulinoma cell replication – ATP luminescence, uHTS, primary screen (AID 2380).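 Further: 0% = DMSO-treated cells in low-serum medium and 100% = 10% serum control.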 The settings on record: MIN6 cells proliferation, ATPlite luminescence, 48 h; at 10 µM; hits give high values; 100% = growth in 10% serum; cells starved in 0.2% serum. On the technique in general: In ATP-based viability assays light output follows the ATP content of the culture.
`CCC(=O)N(c1ccccc1)C1CCN(CCc2ccccc2)CC1`: the proliferation is inactive: -1.33%.
In the case of `CCC(=O)N(c1ccccc1)C1(COC)CCN(CCc2cccs2)CC1` it was inactive: -4.95%.
As to `CCC(=O)N(c1ccccc1)C1(COC)CCN(CCn2nnn(CC)c2=O)CC1`, the proliferation is inactive: -3.34%.
